Compound activity: PubChem BioAssay, several laboratories
A selection: hits, their analogues and other compounds. The true share with any hit is near 0.94%.
ABCB6 inh 2 – human ABCB6 transporter inhibition; AID 602162; hit rate 0.19% among 360,000; fluorescence ratio to DMSO, % at 10 µM; K562-ABCB6 porphyrin accumulation, flow cytometry, 1 h; stronger effect = lower value; Q9NP58;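 active = fluorescence ratio to DMSO below 75%, the collection mean minus 3 SD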;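 note: signal is porphyrin accumulated inside mitochondria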
PKA-R2B activ – PKA-R2B complex activation | activation, % at 11.4 µM | hit rate 0.079% among 340,000 | PKA-R2B holoenzyme dissociation, Cy5-IP20 fluorescence polarization; R2B truncated from residue 108, S112A mutant; 0% DMSO only, 100% 113 µM cGMP | P22694+P31323;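 active = activation above a cutoff set at the mean over all compounds plus 3 SD, cut at about 18% in these data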;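 note: higher means more holoenzyme dissociation and a rise in polarization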
PKA-R1A act – activates the PKA-R1A holoenzyme complex; P00514+P68181; PKA-R1A dissociation, Cy5-IP20 fluorescence polarization; scaled: DMSO 0%, 113 µM cGMP 100%; activation, % at 11.4 µM; hit rate 0.083% among 340,000; AID 504707;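 active = percent activation above the mean of all tested compounds plus 3 SD, cut at about 19% in these data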;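 note: higher means more PKAc released from R1A so a rise in polarization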
UUG fidelity – modulators of start codon recognition fidelity in yeast. S. cerevisiae UUG-firefly luciferase reporter, luminescence/redox ratio. activity score, % at 18.7 µM. 0.13% of 350,000 active. AID 602363;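 active = replicate mean at a twofold rise or more, about +100% in these data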;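 also: firefly luciferase made from a UUG start codon reports start codon fidelity; reporter light over untreated wells divided by growth signal over untreated wells; some hits fall short of that in this replicate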
pCIP destab – compounds decreasing mouse p/CIP protein stability; decrease of EGFP signal, % at 10 µM; AID 1984; F442A p/CIP-EGFP cells, EGFP fluorescence, 16 h; hit rate 0.01% among 290,000;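 active = EGFP signal decrease of at least 30% at 10 µM or well 3 SD below plate mean, unless failing retest; inactive = the rest, including hits failing retest or dose response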
Granule exo inh – blocks lytic granule exocytosis; inhibition, % at 10 µM; AID 651702; hit rate 0.66% among 360,000; TALL-104 LAMP-1 surface exposure, flow cytometry; cells stimulated with thapsigargin and PMA;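 active = inhibition above about 55%, limit read from the data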
Granule exo CP1 – lytic granule exocytosis inhibition. AID 651954. TALL-104 cells, LAMP-1 externalization, flow cytometry; stimulated with PMA plus thapsigargin. inhibition, % at 10 µM. hit rate 11% among 1,500. shares compounds with Granule exo inh; in the data active = inhibition above about 60%
A number is an active result; - = inactive; . = no result given.

SMILES	ABCB6 inh 2	PKA-R2B activ	PKA-R1A act	UUG fidelity	pCIP destab	Granule exo inh	Granule exo CP1
Cc1noc(C)c1S(=O)(=O)N(CC(=O)NC1CCC(C)CC1)c1ccc(C(C)C)cc1 (stereo not drawn)	-	-	-	-	-	72.4	-
C[C@H]1CN([C@@H](C)CO)C(=O)c2cc(NC(=O)Nc3ccccc3)ccc2O[C@H]1CN(C)Cc1ccc(Cl)c(Cl)c1	.	.	.	-	.	.	.
C[C@H](CO)N1C[C@H](C)[C@H](CN(C)C(=O)c2cnccn2)Oc2cc(C#CCC3CCCC3)ccc2S1(=O)=O	.	.	.	-	.	.	.
O=S(=O)(c1ccccc1)c1nnn2c1nc(NC1CCN(Cc3ccccc3)CC1)c1cc(Cl)ccc12	-	-	-	-	-	63.8	69.2
O=S(=O)(c1ccccc1)c1nnn2c1nc(NC1CCN(Cc3ccccc3)CC1)c1ccccc12	-	-	-	.	-	-	.
COc1ccc(S(=O)(=O)Nc2cccc3c2O[C@@H](CN(C)C(=O)Nc2ccccc2)[C@H](C)CN([C@H](C)CO)C3=O)cc1	.	.	.	-	.	.	.
COc1ccc(NC(=S)N(CCCN2CCCC2)Cc2cccn2Cc2ccc(Cl)cc2)cc1Cl	-	-	-	-	-	68.7	-
CN(C)CCCN(Cc1ccccc1)C(=S)Nc1cccc(C(F)(F)F)c1	-	-	-	-	-	-	.
FC(F)(F)c1cccc(NC(=S)N(CCCN2CCCC2)Cc2cccn2Cc2ccc(Cl)cc2)c1	-	-	-	-	-	68.3	-
O=C(Nc1ccc(F)cc1)N[C@H]1C=C[C@H](CC(=O)N2CCOCC2)O[C@H]1CO	.	.	.	-	.	.	.
CO[C@@H]1CN(C)C(=O)c2cc(NC(=O)C3CCOCC3)ccc2OC[C@@H](C)N(S(=O)(=O)c2ccc(C)cc2)C[C@H]1C	.	.	.	-	.	.	.
O=C1Nc2ccccc2C12Nc1ccccc1-c1nc3ccccc3n12 (stereo not drawn)	-	-	-	-	-	55.8	-
O=C(Nc1ccccc1F)N[C@@H]1CC[C@@H](CCNS(=O)(=O)c2ccccc2)O[C@H]1CO	.	.	.	-	.	.	.
COc1ccccc1OCCn1cc(C(=O)C(C)C)c2ccccc21	-	-	-	-	-	59.7	-
CCOC(=O)c1c(CSc2ccccc2)oc2cc(Br)c(O)c(CN(C)C)c12	-	-	-	.	-	-	.
CCOC(=O)c1c(CSc2ccc(CC)cc2)oc2ccc(O)c(CN(C)C)c12	-	-	-	-	-	80.4	-
COC(=O)Cc1c(CSc2ccccc2)oc2ccc(O)c(CN(C)C)c12	-	-	-	-	-	58.3	-
CC(=O)c1c(CSc2ccccc2)oc2ccc(O)c(CN(C)C)c12	-	-	-	-	-	65.7	-
CCNC(=O)Nc1ccc2c(c1)C(=O)N(C)[C@H]1CC[C@@H](CC(=O)NCCN3CCCC3)O[C@H]1CO2	.	.	.	-	.	.	.
CC(C)NC(=O)Nc1ccc2c(c1)C(=O)N([C@H](C)CO)C[C@H](C)[C@@H](CN(C)Cc1ccc(Oc3ccccc3)cc1)O2	.	.	.	-	.	.	.
C[C@H]1CN([C@@H](C)CO)C(=O)c2cc(C#Cc3ccccc3F)cnc2O[C@H]1CN(C)C(=O)Cc1cccnc1	.	.	.	-	.	.	.
CCN(CC)CCN(C(=O)c1cc2ccccc2cc1OC)c1nc2ccc(OC)cc2s1	-	-	-	-	-	65.0	-
CCN(CC)CCN(C(=O)c1cc2ccccc2cc1OC)c1nc2ccc(F)cc2s1	-	-	-	-	-	-	.
C/C=C/c1ccc([C@@H]2[C@@H](C#N)N(C(=O)Cc3ccccn3)[C@@H]2CO)cc1	.	.	.	-	.	.	.
COc1cccc(C2Nc3ccccc3C(=O)N2c2ccc(F)cc2)c1O (stereo not drawn)	-	-	-	-	-	66.3	-
SMILES	ABCB6 inh 2	PKA-R2B activ	PKA-R1A act	UUG fidelity	pCIP destab	Granule exo inh	Granule exo CP1
Cc1ccc(C)c(NC(=O)COC(=O)c2cc(=O)c3ccccc3o2)c1	-	-	-	-	.	73.3	-
Cc1ccc(C)c(NC(=O)c2cc(=O)c3ccccc3o2)c1	-	-	-	.	-	-	.
COc1cccc(Sc2nc(-c3ccccc3)ncc2S(C)(=O)=O)c1	-	-	-	-	-	64.9	-
CO[C@H]1CN(C)C(=O)c2ccc(NC(=O)C3CC3)cc2OC[C@H](C)N(C(=O)c2ccccc2)C[C@H]1C	.	.	.	-	.	.	.
Cc1ccnc(Nc2nc(-c3ccc(O)c(O)c3)cs2)c1	-	-	-	-	-	71.8	-
COC(=O)c1cc(NC(=O)CN(c2ccccc2OC)S(=O)(=O)c2ccccc2)ccc1Cl	-	-	-	-	-	67.6	-
CS(=O)(=O)N(CC(=O)Nc1cccc(Cl)c1)c1ccccc1Cl	-	-	-	-	-	84.7	-
CCOc1ccc(N(CC(=O)NCc2ccc(Cl)cc2)S(=O)(=O)c2ccccc2)cc1	-	-	-	-	-	77.0	-
Cc1ccc(Cl)cc1N(CC(=O)Nc1cccc(N(C)S(C)(=O)=O)c1)S(C)(=O)=O	-	-	-	.	-	-	.
CCOc1ccccc1N(CC(=O)NC1CCCCC1)S(=O)(=O)c1ccccc1	-	-	-	-	-	70.0	-
C[C@@H]1CN([C@@H](C)CO)C(=O)c2cc(C#C[C@@H](C)O)cnc2O[C@H]1CN(C)C(=O)c1ccccc1F	.	.	.	-	.	.	.
C[C@@H]1CN([C@H](C)CO)C(=O)c2cccc(NS(=O)(=O)c3ccc(F)cc3)c2O[C@@H]1CN(C)Cc1ccc(C(=O)O)cc1	.	.	.	-	.	.	.
C[C@H](CO)N1C[C@H](C)[C@@H](CN(C)CC2CC2)Oc2cc(C#C[C@@H](C)O)ccc2S1(=O)=O	.	.	.	-	.	.	.
COc1ccccc1N(CC(=O)NCCSCc1ccccc1)S(=O)(=O)c1ccc(C)cc1	-	-	-	-	-	90.0	-
CCOc1ccccc1N(CC(=O)Nc1ccc(OC)cc1OC)S(=O)(=O)c1ccccc1	-	-	-	-	-	-	.
COc1ccc(N(CC(=O)NC(C)c2ccccc2)S(=O)(=O)c2ccc(C)cc2)cc1 (stereo not drawn)	-	-	-	-	-	86.7	-
CCOc1ccccc1N(CC(=O)Nc1ccccc1F)S(=O)(=O)c1ccccc1	-	-	-	-	-	56.9	-
CCN(c1ccccc1)S(=O)(=O)c1ccc(OC)c(NC(=O)CNCCc2ccccc2)c1	-	-	-	-	-	84.9	-
COc1ccc(N(CC(=O)Nc2cc(C)on2)S(=O)(=O)c2ccc(Cl)cc2)cc1	-	-	-	-	-	-	.
CCN(CC(=O)NCc1cccs1)C(=O)CCOc1ccccc1C	-	-	-	-	-	-	.
CCN(CC(=O)NCc1ccc(Cl)cc1)C(=O)CCOc1ccccc1C	-	-	-	-	.	80.4	-
COc1ccc(N(CC(=O)Nc2ccc(OC)cc2OC)S(=O)(=O)c2ccccc2)cc1	-	-	-	.	-	-	.
